# Source: patent US7671039B2, “Composition containing beta-glucan for prevention and treatment of osteoporosis” (Glucan Corporation, priority 2004, dated 2010)
# Where two headings read alike, the source gives them in different places.
# Conditions: FOSA group: Fosamax 10 mg/kg oral
smiles,measurement,setting,value
"NCCCC(O)(P(=O)(O)O)P(=O)(O)O [FOSA, sodium alendronate]",body weight,"1 times per day for 4 weeks, A: after immediately surgical operation",25.30 ± 1.17
same,body weight,B: after 4 weeks of surgical operation,33.68 ± 2.61
same,body weight,C: after immediately administration,31.56 ± 1.81
same,body weight,E: after 2 weeks of administration,32.86 ± 4.20
same,body weight,F: after 4 weeks of administration,37.02 ± 3.93
same,body weight,G: after sacrifice,31.70 ± 3.73
